The test system of test [1] is Plasmodium falciparum strain 3D7. In words: Apicoplast as target: growth inhibition with and without IPP supplementation. The test is classed as cell-based. Conditions: 3D7, 144 h.
Test [2] shares this test system. In words: Growth inhibition assay with asexual Plasmodium falciparum (HRP2 ELISA). The format is cell-based. Conditions: for IC50: Plasmodium falciparum.

The values below come from patent publication US20240277738A1, “GAMETOCYTOCIDAL COMPOUND” (Eberhard Karls Universität Tübingen Medizinische Fakultãt, priority 2021, published 2024).

Each structure is given as a SMILES string.

In the case of `CCC[C@@H]1C[C@@H](C(=O)N[C@@H]([C@H]2O[C@H](SC)[C@H](O)[C@@H](O)[C@H]2O)[C@H](C)Cl)N(C)C1` [Clindamycin], the IC50 is above 18000 nM in test [1] (read-out: IC50, IPP-supplemented); 6.9 nM in test [1] (read-out: IC50, control without IPP); above 18000 nM in test [2] (3D7, 72 h, read-out: IC50, 3 day-assays, 3D7); 5.9 nM in test [2] (3D7, 144 h, read-out: IC50, 6 day-assays, 3D7). Also, the “Fold differences, 6 day-assays” value in test [2] (IC50 3D7 versus A1-H.1, 6 days) came out at 0.4.
